In article PMC3769975 (ChemMedChem, 2012):

Molecular target: recombinant neuraminidase N1 (A/California/04/09) (Influenza A virus (A/California/04/2009(H1N1)), UniProt C3W5S3)
Assay: Fluorescent neuraminidase assay
Type: biochemical, influenza A/California/04/09

`CC(=O)N[C@H]1[C@H]([C@H](O)[C@H](O)CO)OC(C(=O)O)=C[C@@H]1N=C(N)N` [zanamivir, reference compound] showed an EC50 of 3.4 nM.
